Results on 1 compound are retold here after PMC7382816 (BMC Pharmacology & Toxicology, 2020).

Molecules are shown by their SMILES.

A short description of the data set: Single-dose pharmacokinetics in healthy volunteers under fasting and fed (high-fat breakfast) conditions, plasma concentrations by HPLC-MS, non-compartmental analysis. The settings on record: mean ± SD; for half-life: human, plasma. It counts as in vivo, human. An excerpt: The bioequivalence clinical trials were phase I, randomized, open-label, crossover, single-centre, with two periods separated by a 7-day washout stage. Subjects were randomised to one of the two treatment sequences, RT or TR where R was the reference formulation and T was the test formulation. Each of the clinical trial was crossover for evaluation of a test formulation compared to a reference formulation either under fed or fasting conditions. […] The treatments were allocated in a balanced manner on every inclusion day (blocks of 4 subjects). Our study adheres to CONSORT guidelines. […] Sample processing, genotyping for CYP2C19 and drug quantification were performed according to Román et al. […] Pharmacokinetic parameters were estimated from the plasma concentration–time data by non-compartmental analysis (WinNonlin Professional, version 2.0., Pharsight Corporation, USA) as reported by Román et al. […] WinNonLin Professional software version 2.0 was used for the statistical analysis. Pharmacokinetic parameters were log-transformed, and AUC and Cmax were adjusted for dose and weight. The values of pharmacokinetic parameters were expressed as mean ± standard deviation.

Turning to `COc1ccc2[nH]c([S+]([O-])Cc3ncc(C)c(OC)c3C)nc2c1` (stereo not drawn) [Omeprazole, omeprazole], the half-life is 1.1 ± 0.6 h (both sexes, po, Fast, all subjects, single oral dose) and 1.1 ± 0.4 h (female, oral, only CYP2C19*1/*1 subjects, Fed, women). The Tmax (only CYP2C19*1/*1 subjects, Fast, women) is listed as 1.5 ± 0.3 h.

By half-life is commonly meant how long it takes for the measured level to halve. A higher half-life goes with slow decline. In general, Tmax refers to the time from dosing to the highest level.
